Ab-14 light chain CDR variants: yeast mating affinities

Target peptide (SARS-CoV-2 spike, HR2 region): PDVDLGDISGINAS

Parent scFv Ab-14: VH joined to VL by a 15-residue (Gly4Ser)3 linker. Changes lie in the light chain CDRs alone.
VH: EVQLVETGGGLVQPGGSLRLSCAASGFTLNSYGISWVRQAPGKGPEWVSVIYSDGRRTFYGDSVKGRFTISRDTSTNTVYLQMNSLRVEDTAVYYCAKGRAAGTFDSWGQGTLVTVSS
VL: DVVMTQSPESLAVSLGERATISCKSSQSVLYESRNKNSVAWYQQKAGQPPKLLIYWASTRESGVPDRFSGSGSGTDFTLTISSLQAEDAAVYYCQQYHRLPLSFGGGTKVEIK

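Phage display of a naive human antibody library on the peptide gave the parent. Designed CDR sequences, proposed from the first random library and measured here. Group labels follow the data file (Ctrl: baseline library sampled from a position-specific scoring matrix, with some repeated check sequences; GP: Gaussian process model; HC: hill climbing; Gen: genetic algorithm; Gibbs: Gibbs sampling; a sequence that several methods proposed may carry one label only). The scFvs were displayed on barcoded MATa yeast, the peptide on MATalpha yeast. Binding brings cells together so that they mate, and sequencing counts the barcode pairs among the diploids. The ratio of observed to expected reads was calibrated, replicate by replicate, on BCL2-family standards whose Kd was known from biolayer interferometry. Mating was done six times.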

Changes read parent residue, position, new residue, counted from the first residue of the VL shown.
This list holds designs with at most six substitutions.
Scale: log10 of Kd in nM, estimated from mating counts; low values are strong binders.
The mean shown is taken over the replicates in which the pair was detected.
A pair that was not seen in any replicate is written "no signal"; this usually means weak binding, but a binder can also be missed.
The parent sequence was in this pool as ten entries: three were never detected, three once, and four in most replicates, with averages from 0.34 to 2.37.
Values of this round are not directly comparable with the first-round values of the same sequences.
Nonspecific signal, from three strains lacking the peptide, appeared in 4% of pairings of all light chain designs, centred on 2.64 (5% of these signals below 1.59); values are not corrected for it. Also given: how often the same scFv was detected with the empty control strains.
In the paper, a design with two or fewer of six values counts as a poor binder.

For S25L L30D W56E [GP_Gen], the assay gave 0.00 (6 of 6 replicates; controls 0 of 18).
For K24R S25Q W56E [GP_HC], the assay gave -0.12 (6 of 6 replicates; controls 0 of 18).
For T59F E61V [Ctrl], the assay gave no signal (0 of 6 replicates; controls 0 of 18).
For S25I W56A Q96P [Ctrl], the assay gave 1.18 (6 of 6 replicates; controls 4 of 18).
For R34E T59F [Ctrl], the assay gave 1.79 (6 of 6 replicates; controls 2 of 18).
For W56R S103M [Ctrl], the assay gave 1.82 (6 of 6 replicates; controls 0 of 18).
For V29E Y31N W56D [GP_HC], the assay gave 0.00 (6 of 6 replicates; controls 0 of 18).
For S25F S28G V29P L30E H98D [Ctrl], the assay gave 1.06 (6 of 6 replicates; controls 0 of 18).
For K24H Q27P S38N W56N S62E [GP_HC], the assay gave -0.28 (6 of 6 replicates; controls 0 of 18).
For S25L V29M W56N E61Y [GP_Gen], the assay gave 0.17 (6 of 6 replicates; controls 2 of 18).
For S26D H98L [Ctrl], the assay gave 2.07 (2 of 6 replicates; controls 0 of 18).
For W56T R60H Q95V [Ctrl], the assay gave no signal (0 of 6 replicates; controls 0 of 18).
For S25L N35V W56N T59L [GP_Gen], the assay gave 0.47 (6 of 6 replicates; controls 0 of 18).
For S25L Q27F V29C R34A W56N E61Y [GP_Gibbs], the assay gave 0.05 (6 of 6 replicates; controls 1 of 18).
For S25L Q27C V29E E32G W56D T59Q [GP_Gibbs], the assay gave -0.30 (6 of 6 replicates; controls 3 of 18).
For S25G W56K S62E [Ctrl], the assay gave 0.17 (6 of 6 replicates; controls 2 of 18).
For Q27I V29Q W56A [GP_HC], the assay gave 0.58 (6 of 6 replicates; controls 0 of 18).
For S25V N35M W56E E61C S103E [GP_HC], the assay gave 0.40 (6 of 6 replicates; controls 0 of 18).
For Q27V S28A R34N K36A W56E [Ctrl], the assay gave 0.78 (6 of 6 replicates; controls 1 of 18).
For S25L S26Y W56N E61M [GP_Gen], the assay gave 0.31 (6 of 6 replicates; controls 0 of 18).
For S25L L30P W56N S62M [GP_Gen], the assay gave 0.19 (6 of 6 replicates; controls 3 of 18).
For S25F N35T K36S W56D [GP_HC], the assay gave -0.07 (6 of 6 replicates; controls 2 of 18).
For S25L S26Q V29T W56Q [GP_HC], the assay gave -0.04 (6 of 6 replicates; controls 0 of 18).
For S25L V29T E32D R34Q H98K [GP_HC], the assay gave 0.62 (6 of 6 replicates; controls 3 of 18).
For S26D Q27T S28I L30W [Ctrl], the assay gave 2.90 (1 of 6 replicates; controls 3 of 18).
For S25L V29M L30E W56N T59Q E61L [GP_Gen], the assay gave 0.20 (6 of 6 replicates; controls 0 of 18).
For S25L S26M V29Q W56N E61M [GP_Gen], the assay gave 0.01 (6 of 6 replicates; controls 0 of 18).
For K24H W56Q [Ctrl], the assay gave 0.96 (6 of 6 replicates; controls 0 of 18).
For S28D L100C [Ctrl], the assay gave -0.23 (6 of 6 replicates; controls 0 of 18).
For R34T E61C [Ctrl], the assay gave 1.48 (6 of 6 replicates; controls 2 of 18).
For Q27R S33E R34N S62Q [Ctrl], the assay gave 0.97 (6 of 6 replicates; controls 2 of 18).
For S25Q Y31M S33W W56D [GP_HC], the assay gave -0.37 (6 of 6 replicates; controls 0 of 18).
For S25V Y31G W56D [GP_Gen], the assay gave -0.11 (6 of 6 replicates; controls 3 of 18).
For S25L S26Y V29Q W56N T59Q [GP_Gen], the assay gave -0.05 (6 of 6 replicates; controls 2 of 18).
For V29F W56G T59Q [GP_HC], the assay gave -0.13 (6 of 6 replicates; controls 1 of 18).
For S25V S26P V29T W56N [GP_Gen], the assay gave -0.40 (6 of 6 replicates; controls 2 of 18).
For W56G A57R [Ctrl], the assay gave 0.77 (6 of 6 replicates; controls 2 of 18).
For S25L V29H W56S [GP_Gen], the assay gave -0.22 (6 of 6 replicates; controls 1 of 18).
For S25Q V29A L30E R34G Q95N S103W [Ctrl], the assay gave no signal (0 of 6 replicates; controls 0 of 18).
For S25L Q27G V29F W56N [GP_Gen], the assay gave -0.17 (6 of 6 replicates; controls 0 of 18).
For W56T H98P L100N [Ctrl], the assay gave no signal (0 of 6 replicates; controls 0 of 18).
For K24S S25L S26Q V29W W56N S62W [GP_Gibbs], the assay gave 0.04 (6 of 6 replicates; controls 1 of 18).
For S25L V29G W56N S62M [GP_Gen], the assay gave 0.17 (6 of 6 replicates; controls 0 of 18).
For S33E W56M S62L [Ctrl], the assay gave 2.02 (5 of 6 replicates; controls 1 of 18).
For S25A S26V V29W W56G [GP_HC], the assay gave -0.13 (6 of 6 replicates; controls 1 of 18).
For S25V Q27P V29Y W56E [GP_Gen], the assay gave -0.20 (6 of 6 replicates; controls 0 of 18).
For S25L S26Q V29M K36V W56D T59K [GP_Gibbs], the assay gave -0.47 (6 of 6 replicates; controls 3 of 18).

Data: MIT Lincoln Laboratory AlphaSeq set, Li et al. 2023, doi:10.1038/s41467-023-39022-2, as distributed in FLAb.